Reference: US12540143B2, “Methods and compositions for targeted protein degradation” (Ranok Therapeutics (Hangzhou) Co. Ltd., priority 2019, dated 2026)

Test system: SU-DHL-4 diffuse large B-cell lymphoma xenograft
Assay: SU-DHL-4 DLBCL xenograft model in mice
Settings: 100 mg/kg oral 1×/day
Method: 10 μL the cell proliferation reagent CCK-8 (WST-8) was added into each well and incubated at 37° C./5% CO2 for 3-4 hr and the absorbance at 450 nm measured with an En Vision Plate Reader.
5×10^6 MV-4-11 or 1×10^7 SU-DHL-4 cells were collected and re-suspended in 0.1 mL of serum-free media with Matrigel (1:1 v/v) per mouse for subcutaneous inoculation in isoflurane anesthetized male BALB/c nude or C.B-17 scid mice, respectively (treated in accordance with AAALAC animal welfare guidelines). When the average tumor volumes reached 100-200 mm^3, tumor volume outliers were removed and the remaining animals randomly divided into groups of 6-8 with similar average tumor volumes in each group. […] Animals were intravenously dosed at 25 mg/kg, 50 mg/kg or 100 mg/kg 1×/week for 3 or 4 weeks. The appearance and behavior of each mouse was observed and recorded daily. Body weights and tumor volumes were measured and recorded every 2-4 days and the results were expressed as group means±SEM. Pairwise statistical comparisons between groups were performed by one-way ANOVA, and p<0.05 was considered statistically significant.

Molecule `Cc1sc2c(c1C)C(c1ccc(Cl)cc1)=N[C@@H](CC(=O)Nc1ccc(O)cc1)c1nnc(C)n1-2` [OTX-015, reference compound] has a T/C value of 45%.
